Measured values taken from patent US7837670B2, “Methods and devices for delivering therapeutic agents into the prostate gland” (Boston Scientific Scimed, Inc., priority 2005, dated 2010).

Tested on: prostate tissue of elderly dogs with proven prostatic hyperplasia
Test: Histology (H&E) of the prostate 4 days after local injection into prostate tissue
Details: 4 days after 1 ml of 5 mCi injected locally into the prostate; one dog, FIG. 16

“99mTc complexed with hexamethyl-propyleneamine oxime” was tested, and the “state of the prostatic glands (H&E section)” value was “almost completely destroyed” and the “state of the prostatic stroma (H&E section)” value was “infiltrated with inflammatory cells”.
